Broadly, the IC50 is the concentration needed to halve the response being measured.

The chains behind the UniProt entries cited, without tags or fusion partners. Residues count along the entry.
UniProt Q92793, 1085-1192 limits assumed: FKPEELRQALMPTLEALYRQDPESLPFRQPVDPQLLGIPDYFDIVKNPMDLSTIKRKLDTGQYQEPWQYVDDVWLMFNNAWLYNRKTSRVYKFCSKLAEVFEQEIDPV

From patent publication EP4831169A1, “NOVEL COMPOUND USED AS CBP/P300 INHIBITOR, AND PHARMACEUTICAL COMPOSITION FOR PREVENTING OR TREATING CANCER, INFLAMMATORY DISORDERS, OR AUTOIMMUNE DISEASES COMPRISING SAME AS ACTIVE INGREDIENT” (dated 2026) come the findings set out here.

Some results are limits rather than exact numbers.

Test [1] addresses BRD4 (BD1) protein (Homo sapiens, UniProt O60885). Description: BRD4 bromodomain TR-FRET inhibitory activity assay. Particulars: read-out: BRD4 (BD1) IC50, Table 4. (In general: Time-resolved FRET reads energy transfer from a long-lived donor to a nearby acceptor.)
Test [2] concerns the target CBP BRD protein (Homo sapiens, UniProt Q92793). Kind of test: CBP bromodomain TR-FRET inhibitory activity assay. Particulars: read-out: CBP BRD IC50, Table 3.

On to `Cn1cc(-c2cc3nc(-c4cncn4C)n(-c4cc(N5CCOCC5)c5c(c4)n(C)c(=O)n5C)c3cn2)cn1`, for which the IC50 in test [1] is more than 5 µM; in test [2], less than 0.5 µM.

Consider `Cn1cc(-c2cc3nc(-c4cncn4C)n(-c4cc(C5CCOCC5)c5c(c4)n(C)c(=O)n5C)c3cc2F)cn1`, for which the half-maximal inhibitory concentration (IC50) was more than 5 µM in test [1] and less than 0.5 µM in test [2].

Take `Cn1cc(-c2cc3nc(-c4cncn4C)n(-c4cc(NCC5CCCCC5)c5c(c4)n(C)c(=O)n5C)c3cc2F)cn1`: the half-inhibitory concentration (IC50) in test [1] is more than 5 µM; in test [2] it was less than 0.5 µM.

Turning to `CC(C)n1c(=O)n(C)c2cc(-n3c(-c4cncn4C)nc4cc(-c5cnn(C)c5)c(F)cc43)ccc21`, the IC50 in test [1] is more than 5 µM; in test [2], 0.5 to 5 µM.

On to `Cc1ccc2c(-c3nc4cc(Br)c(C#N)cc4n3-c3ccc4c(c3)n(C)c(=O)n4C)c[nH]c2c1`, for which the concentration for half-maximal inhibition (IC50) in test [1] and in test [2] was more than 5 µM each time.

For `COC(=O)c1cc2c(cc1-c1cnn(C)c1)nc(-c1c[nH]c3cc(C)ccc13)n2-c1ccc2c(c1)n(C)c(=O)n2C`, the IC50 in test [1] and in test [2] was 0.5 to 5 µM each time.

For the compound `C#CC(C)(C)c1nc2cc(-c3cnn(C)c3)c(C#N)cc2n1-c1cc(OC(C)C)c2c(c1)n(C)c(=O)n2C`, the IC50 in test [1] is more than 5 µM; in test [2], less than 0.5 µM.

Consider `Cn1cc(-c2cc3nc(C(C)(C)C)n(-c4cc(Oc5cc(Cl)ncn5)c5c(c4)n(C)c(=O)n5C)c3cc2C(F)F)cn1`, for which the IC50 in test [1] is more than 5 µM; in test [2], less than 0.5 µM.

Consider `Cn1cc(-c2cc3nc(-c4cncn4C)n(-c4cc(N5CC6COCC6C5)c5c(c4)n(C)c(=O)n5C)c3cc2F)cn1` (stereo not shown), for which the IC50 in test [1] was 0.5 to 5 µM; in test [2], less than 0.5 µM.

For `Cn1cncc1-c1nc2cc(-c3ccc4c(c3)NC(=O)CO4)c(F)cc2n1-c1cc(C2CCOCC2)c2c(c1)n(C)c(=O)n2C`, the IC50 in test [1] is more than 5 µM; in test [2], less than 0.5 µM.

As for `Cn1cc(-c2cc3nc(C(C)(C)C)n(-c4cc(N5CCOCC5)c5c(c4)n(C)c(=O)n5C)c3cc2C=O)cn1`, the IC50 in test [1] is more than 5 µM; in test [2], less than 0.5 µM.

Turning to `CC(=O)Nc1ccc(-c2cc3nc(-c4cncn4C)n(-c4cc(C5=CCN(C)CC5)c5c(c4)n(C)c(=O)n5C)c3cc2F)cc1`, the IC50 in test [1] was more than 5 µM; in test [2], less than 0.5 µM.

On to `Cc1ncc(-c2cc3nc(C(C)(C)C)n(-c4cc(N5CCC(O)CC5)c5c(c4)n(C)c(=O)n5C)c3cc2Cl)s1`, for which the IC50 was more than 5 µM in test [1] and less than 0.5 µM in test [2].

For the compound `Cn1cc(-c2cc3nc(C(C)(C)C)n(-c4cc(OC5CCNCC5)c5c(c4)n(C)c(=O)n5C)c3cc2F)cn1`, the IC50 in test [1] was more than 5 µM; in test [2], less than 0.5 µM.

With `Cc1cccc(-c2nc3cc(-c4cnn(C)c4)c(F)cc3n2-c2cc(C(C)C)c3c(c2)n(C)c(=O)n3C)c1C`, the IC50 in test [1] was more than 5 µM; in test [2], less than 0.5 µM.

With `Cn1cc(-c2cc3nc(-c4cncn4C)n(-c4cc(C5CC5)c5c(c4)n(C)c(=O)n5C)c3cc2F)cn1`, the IC50 in test [1] is more than 5 µM; in test [2], less than 0.5 µM.

Consider `Cn1cc(-c2cc3nc(-c4cncs4)n(-c4cc(N5CC(C)(O)C5)c5c(c4)n(C)c(=O)n5C)c3cc2C(F)F)cn1`, for which the IC50 in test [1] was 0.5 to 5 µM; in test [2], less than 0.5 µM.

Regarding `Cn1cc(-c2cc3nc(C(C)(C)C)n(-c4cc(N5CCC(=O)CC5)c5c(c4)n(C)c(=O)n5C)c3cc2C(F)F)cn1`, the concentration for half-maximal inhibition (IC50) was more than 5 µM in test [1] and less than 0.5 µM in test [2].

As to `CC(=O)Nc1ccc(-c2cc3nc(-c4cncn4C)n(-c4cc(NC5CCCC5)c5c(c4)n(C)c(=O)n5C)c3cc2F)cc1`, the concentration for half-maximal inhibition (IC50) in test [1] is more than 5 µM; in test [2], less than 0.5 µM.

Turning to `Cn1cc(-c2cc3nc(C(C)(C)C)n(-c4cc(N5CCC(C)(O)CC5)c5c(c4)n(C)c(=O)n5C)c3cc2C(F)F)cn1`, the half-inhibitory concentration (IC50) in test [1] was 0.5 to 5 µM; in test [2], less than 0.5 µM.

Take `Cc1nc2cc(-c3cnn(C)c3)c(C(=O)O)cc2n1-c1ccc2c(c1)n(C)c(=O)n2C`: the 50% inhibitory concentration (IC50) in test [1] and in test [2] was more than 5 µM in each case.

Turning to `COc1cccc(-c2cc3nc(-c4cncn4C)n(-c4ccc5c(c4)n(C)c(=O)n5C)c3cc2F)c1`, the IC50 was more than 5 µM in test [1] and less than 0.5 µM in test [2].

Consider `Cc1ncc(-c2cc3nc(C(C)(C)C)n(-c4cc(C5CCOCC5)c5c(c4)n(C)c(=O)n5C)c3cc2C(F)(F)F)s1`, for which the half-inhibitory concentration (IC50) is more than 5 µM in test [1] and less than 0.5 µM in test [2].

Regarding `Cn1cncc1-c1nc2cc(-c3cnn(CC4CC4)c3)c(F)cc2n1-c1cc(N2CCOCC2)c2c(c1)n(C)c(=O)n2C`, the half-maximal inhibitory concentration (IC50) in test [1] is more than 5 µM; in test [2], less than 0.5 µM.

As for `COC(=O)C1CN1c1cc(-n2c(C(C)(C)C)nc3cc(-c4cnn(C)c4)c(F)cc32)cc2c1n(C)c(=O)n2C` (stereo not shown), the IC50 in test [1] was more than 5 µM; in test [2] it was less than 0.5 µM.

Regarding `Cn1c(=O)n(C)c2c(N3CC(C)(O)C3)cc(-n3c(C(C)(C)C)nc4cc(-c5cnn(CCN6CCOCC6)c5)c(C(F)F)cc43)cc21`, the IC50 is more than 5 µM in test [1] and less than 0.5 µM in test [2].

As to `Cn1cc(-c2cc3nc(-c4cncn4C)n(-c4cc(N5CCOCC5)c5c(c4)n(C)c(=O)n5C)c3cc2C#N)cn1`, the IC50 is more than 5 µM in test [1] and less than 0.5 µM in test [2].

On to `Cn1cncc1-c1nc2cc(-c3ccc(N)cc3)c(F)cc2n1-c1ccc2c(c1)n(C)c(=O)n2C`, for which the IC50 in test [1] is 0.5 to 5 µM; in test [2], less than 0.5 µM.

In the case of `Cn1cc(-c2cc3nc(-c4cncn4C)n(-c4cc(OC5CCCC5)c5c(c4)n(C)c(=O)n5C)c3cc2F)cn1`, the IC50 in test [1] was more than 5 µM; in test [2] it was less than 0.5 µM.

In the case of `CC(C)Oc1cc(-n2c(C(C)(C)C)nc3cc(-c4cnn(C)c4)c(C#N)cc32)cc2c1n(C)c(=O)n2C`, the concentration for half-maximal inhibition (IC50) in test [1] was more than 5 µM; in test [2], less than 0.5 µM.

Take `CN1CC=C(c2cc(-n3c(-c4cncn4C)nc4cc(-c5cnn(C)c5)c(F)cc43)cc3c2n(C)c(=O)n3C)CC1`: the figures for the IC50 in test [1] and in test [2] were more than 5 µM and less than 0.5 µM, respectively.

Turning to `C[C@H]1CN(c2cc(-n3c(-c4cncn4C)nc4cc(-c5cnn(C)c5)c(F)cc43)cc3c2n(C)c(=O)n3C)CCO1`, the IC50 in test [1] was more than 5 µM; in test [2], less than 0.5 µM.

As to `CN(C)Cc1cc2c(cc1-c1cnn(C)c1)nc(C(C)(C)C)n2-c1cc(N2CCOCC2)c2c(c1)n(C)c(=O)n2C`, the IC50 in test [1] and in test [2] was more than 5 µM in each case.

As for `Cn1cc(-c2cc3nc(-c4cncn4C)n(-c4cc(N5CC(C)(NC(=O)OC(C)(C)C)C5)c5c(c4)n(C)c(=O)n5C)c3cc2C(F)F)cn1`, the 50% inhibitory concentration (IC50) was more than 5 µM in test [1] and less than 0.5 µM in test [2].

For `Cn1cc(-c2cc3nc(C(C)(C)C)n(-c4cc(OCc5ccccc5)c5c(c4)n(C)c(=O)n5C)c3cc2C(F)F)cn1`, the 50% inhibitory concentration (IC50) is more than 5 µM in test [1] and 0.5 to 5 µM in test [2].

In the case of `Cn1cc(-c2cc3nc(C(C)(C)C)n(-c4cc(N5CCOCC5)c5c(c4)n(C)c(=O)n5C)c3cc2OC(F)F)cn1`, the IC50 in test [1] was more than 5 µM; in test [2] it was less than 0.5 µM.

In the case of `Cn1cc(-c2cc3nc(C(C)(C)C)n(-c4cc(N5CCC5)c5c(c4)n(C)c(=O)n5C)c3cc2F)cn1`, the IC50 is more than 5 µM in test [1] and less than 0.5 µM in test [2].

`Cn1cc(-c2cc3nc(-c4cncn4C)n(-c4cc(NC5COC5)c5c(c4)n(C)c(=O)n5C)c3cc2F)cn1`: the figures for the IC50 in test [1] and in test [2] were more than 5 µM and less than 0.5 µM, respectively.

Take `Cn1c(=O)n(C)c2c(N3CCOCC3)cc(-n3c(C(C)(C)C)nc4cc(C(=O)Nc5ccccc5)c(F)cc43)cc21`: the IC50 in test [1] was more than 5 µM; in test [2], less than 0.5 µM.

Turning to `CNC(=O)c1ccc(-c2cc3nc(-c4cncn4C)n(-c4ccc5c(c4)n(C)c(=O)n5C)c3cc2C#N)cc1F`, the 50% inhibitory concentration (IC50) in test [1] was more than 5 µM; in test [2] it was less than 0.5 µM.

In the case of `Cn1cc(-c2cc3nc(C(C)(C)C)n(-c4cc(N5CCOCC5)c5c(c4)n(C)c(=O)n5C)c3cn2)cn1`, the half-inhibitory concentration (IC50) in test [1] is more than 5 µM; in test [2] it was less than 0.5 µM.

As for `C=Cn1cc(-c2cc3nc(C(C)(C)C)n(-c4cc(N5CC(C)(N(C)C)C5)c5c(c4)n(C)c(=O)n5C)c3cc2C(F)F)cn1`, the results for the IC50 in test [1] and in test [2] were more than 5 µM and less than 0.5 µM, respectively.

Take `Cn1cc(-c2cc3nc(C(C)(C)C)n(-c4cc(N5CC(C)(O)C5)c5c(c4)n(C)c(=O)n5C)c3cc2OCc2ccccc2)cn1`: the IC50 in test [1] is more than 5 µM; in test [2] it was less than 0.5 µM.

For `Cn1cncc1-c1nc2cc(-c3cnn(C4CC4)c3)c(F)cc2n1-c1cc(N2CCOCC2)c2c(c1)n(C)c(=O)n2C`, the half-maximal inhibitory concentration (IC50) is more than 5 µM in test [1] and less than 0.5 µM in test [2].

As for `Cn1cc(-c2cc3nc(C(C)(C)C)n(-c4cc(N5CCC(O)CC5)c5c(c4)n(C)c(=O)n5C)c3cc2C(F)F)cn1`, the 50% inhibitory concentration (IC50) in test [1] is more than 5 µM; in test [2], less than 0.5 µM.

As for `CC(C)Nc1cc(-n2c(C(C)(C)C#N)nc3cc(-c4ccc5c(c4)OCC(=O)N5)c(F)cc32)cc2c1n(C)c(=O)n2C`, the half-maximal inhibitory concentration (IC50) is more than 5 µM in test [1] and less than 0.5 µM in test [2].

Turning to `CC(C)c1cc(-n2c(C(C)(F)F)nc3cc(-c4cnn(C)c4)c(F)cc32)cc2c1n(C)c(=O)n2C`, the concentration for half-maximal inhibition (IC50) is more than 5 µM in test [1] and 0.5 to 5 µM in test [2].

On to `Cn1cc(-c2cc3nc(-c4cncn4C)n(-c4cc(OCC5CC5)c5c(c4)n(C)c(=O)n5C)c3cc2F)cn1`, for which the IC50 is more than 5 µM in test [1] and less than 0.5 µM in test [2].

With `Cc1ncc(-c2cc3nc(-c4cncn4C)n(-c4cc(N5CCOCC5)c5c(c4)n(C)c(=O)n5C)c3cn2)s1`, the IC50 in test [1] is more than 5 µM; in test [2], less than 0.5 µM.

For the compound `COc1cc(-c2cc3nc(-c4cncn4C)n(-c4cc(C5CCOCC5)c5c(c4)n(C)c(=O)n5C)c3cc2F)ccc1Cl`, the IC50 in test [1] was more than 5 µM; in test [2], 0.5 to 5 µM.

As for `CNC(=O)c1ccc(-c2cc3nc(-c4cncn4C)n(-c4ccc5c(c4)n(C)c(=O)n5C)c3cc2C(=O)NC)cc1F`, the IC50 in test [1] is more than 5 µM; in test [2], 0.5 to 5 µM.

As for `Cn1cc(-c2cc3nc(C(C)(C)C)n(-c4ccc5c(c4)n(C)c(=O)n5C)c3cc2C(=O)O)cn1`, the concentration for half-maximal inhibition (IC50) is more than 5 µM in test [1] and 0.5 to 5 µM in test [2].

`CC(=O)N1CCN(c2cc(-n3c(C(C)(C)C)nc4cc(-c5cnn(C)c5)c(C(F)F)cc43)cc3c2n(C)c(=O)n3C)CC1`: the IC50 was more than 5 µM in test [1] and less than 0.5 µM in test [2].
